Test results taken from ChEMBL document CHEMBL4765295, “Synthesis, pharmacological profile and 2D-QSAR studies of curcumin-amino acid conjugates as potential drug candidates” (Eur J Med Chem, 2020).

Test system: MCF7
Assay: Antiproliferative activity against human MCF7 cells assessed as inhibition of cell growth after 72 hrs by MTT assay
Assay type: functional, cell-based
Settings: MCF7, 72 h

O=c1[nH]cc(F)c(=O)[nH]1 [FLUOROURACIL]
IC50: 3.15 µM
